Tested on: Serratia marcescens (−)
Conditions: 2% lysine citrate

SMILES: NCCCC[C@H](N)C(=O)O.O=C(O)CC(O)(CC(=O)O)C(=O)O [Lysine Citrate, lysine citrate]
- growth of Serratia marcescens: prevented from growing
